Apparent affinities of Ab-95 variants for a coronavirus HR2 peptide

The measurements come from Engelhart et al. 2022 (doi:10.1038/s41597-022-01779-4) through the FLAb antibody collection.

Binding partner: SARS-CoV-2 spike HR2 peptide, sequence PDVDLGDISGINAS.

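The starting antibody came from a phage panning campaign against this peptide. Library AAYL52 holds single substitutions and randomly drawn double and triple substitutions in the CDRs. In AlphaSeq, yeast of one mating type display the scFv and yeast of the other type display the target. Mating (16 h, 30 °C) was followed by selection of diploids and sequencing of their barcodes. Each replicate has its own calibration line, from reference interactions of the BCL2 family. The assay was run in three technical replicates.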

The variants keep the heavy chain, the linker and the frameworks of Ab-95 (scFv order VH, a (GGGGS)3 linker, VL).
VH: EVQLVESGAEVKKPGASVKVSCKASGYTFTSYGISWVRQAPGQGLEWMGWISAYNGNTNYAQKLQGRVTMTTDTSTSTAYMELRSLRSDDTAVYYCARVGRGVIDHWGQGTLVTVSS
VL: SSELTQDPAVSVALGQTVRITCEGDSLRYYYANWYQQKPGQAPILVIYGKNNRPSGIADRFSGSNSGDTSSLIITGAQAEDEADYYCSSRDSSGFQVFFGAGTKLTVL

Each variant is given by its three light chain CDRs, as the data file delimits them; those of the parent are EGDSLRYYYAN, GKNNRPS, SSRDSSGFQVF. Affinities are written as log10 Kd with Kd in nM; a lower number is a better binder. Averages over replicates are reported, and they cover detected replicates only. An entry "nd" has no value in the source: the pair was not observed among the diploids in that replicate. This suggests poor binding but is not conclusive. Parent in this assay: reference entry 2.31, copy in this library 2.25. Empty control strains, which show no peptide, gave a signal in 28% of pairings with library AAYL52; the median was 3.91 and 95% of these signals were weaker than 2.90. No background was subtracted. For each scFv, signals with the empty controls are counted beside the result, with their mean in brackets.

| # | CDR-L1 | CDR-L2 | CDR-L3 | log10 Kd (nM) by replicate | mean log10 Kd (nM) | control signals |
|---|---|---|---|---|---|---|
| 1 | EGDSLRYYYAN | GFNNRPS | SSRDVSGFQVF | nd 3.08 3.07 | 3.08 | 1 of 9 (4.47) |
| 2 | EGDSLTYYYAN | GKNNRPS | VSRDSGGFQVF | nd 2.76 3.38 | 3.07 | 0 of 9 |
| 3 | EGDSLRYYYAN | GKHVIPS | SSRDSSGFQVF | 4.49 3.74 3.95 | 4.06 | 3 of 9 (3.65) |
| 4 | EGDDLRYYYAN | GKNKRPS | SSRDSSGFQVV | 3.26 4.25 3.83 | 3.78 | 1 of 9 (5.06) |
| 5 | EGDSLRYQYAN | GKNNRPS | SSRDHSGHQVF | 2.12 1.77 1.40 | 1.76 | 3 of 9 (4.98) |
| 6 | EGDSLRYYWAN | EKNNRPS | SSRISSGFQVF | nd nd nd | nd | 1 of 9 (3.08) |
| 7 | FGDSLRYYYAN | GKNNRGS | SSRDSSGFQVC | 2.89 2.84 3.74 | 3.16 | 3 of 9 (4.19) |
| 8 | EGDSLRYFDAN | GKENRPS | SSRDSSGFQVF | 1.74 1.62 1.23 | 1.53 | 7 of 9 (3.83) |
| 9 | EGDILRYYYAN | GKNNTPS | SSFDSSGFQVF | nd nd nd | nd | 0 of 9 |
| 10 | ELDSLRYYYAN | GKNNRPS | SSDDSSGFQAF | 4.25 nd nd | 4.25 | 1 of 9 (3.82) |
| 11 | EGDYLRYYYAN | GKCNRPS | SSRDSSIFQVF | nd nd 2.39 | 2.39 | 2 of 9 (3.98) |
| 12 | EGDSYRYYYAP | GKNNRPS | SSRVSSGFQVF | 3.68 nd nd | 3.68 | 3 of 9 (3.63) |
| 13 | EGDSLRYYYTN | GSNNNPS | SSRDSSGFQVF | nd nd nd | nd | 2 of 9 (3.31) |
| 14 | EGDILRYYYAN | GKNNRPS | SSRDSSGCPVF | 3.11 nd 4.46 | 3.79 | 5 of 9 (3.68) |
| 15 | EGDSLRYYYAN | GKCNRPS | SSRDSSGFQVF | 4.22 5.21 nd | 4.72 | 1 of 9 (4.44) |
| 16 | EGDSLRYYYPN | SKNNRNS | SSRDSSGFQVF | 3.50 2.78 2.62 | 2.97 | 2 of 9 (3.14) |
| 17 | EGDSGRYYYAN | GKNNSPS | SSWDSSGFQVF | nd 4.71 nd | 4.71 | 5 of 9 (3.99) |
| 18 | EGDSLRYYYAN | GCNNIPS | SSRDSSGFQWF | nd nd nd | nd | 0 of 9 |
| 19 | EGDSLRYYYAN | GKPNRPS | SSRDSSGFWVF | 3.43 3.53 nd | 3.48 | 4 of 9 (3.81) |
| 20 | ERDSLRYYYAN | GKNNRPS | SSRDSSGFQVF | 3.49 nd nd | 3.49 | 3 of 9 (3.83) |
| 21 | EGDSLRYYEAN | GKNNRPS | SERDNSGFQVF | nd nd nd | nd | 1 of 9 (2.99) |
| 22 | EGDSLRYYYAN | GKNNRPS | WSRYSSGFEVF | nd 3.93 nd | 3.93 | 5 of 9 (3.53) |
| 23 | FGDGLRYYYAN | GKNNCPS | SSRDSSGFQVF | 3.84 4.75 3.13 | 3.91 | 6 of 9 (3.91) |
| 24 | EGDSLRYYYAN | GKMNRPS | SSRDLSGFQVF | 3.76 3.20 nd | 3.48 | 3 of 9 (3.96) |
| 25 | EGDSPRYYYAN | GKNNRPS | RSRDSSEFQVF | 3.43 nd nd | 3.43 | 3 of 9 (3.80) |
| 26 | EGDSARYYYMN | GKNNRPS | SSRDSSGGQVF | 3.40 3.02 4.28 | 3.57 | 3 of 9 (4.66) |
| 27 | EGDSLRYYYAN | GKNNRPS | IVRDSSGFWVF | nd nd nd | nd | 4 of 9 (3.90) |
| 28 | EGDSLRYYYAN | GKNNHPS | SSRDDHGFQVF | 3.01 2.36 2.15 | 2.51 | 1 of 9 (4.17) |
| 29 | EGDSHRYYYAN | GKNNEPS | SSRDSAGFQVF | nd nd nd | nd | 0 of 9 |
| 30 | EGDSLRYYYAG | GKNNRNS | PSRDSSGFQVF | 3.86 5.81 nd | 4.84 | 2 of 9 (3.70) |
| 31 | EGFSLRRYYLN | GKNNRPS | SSRDSSGFQVF | nd nd nd | nd | 2 of 9 (3.58) |
| 32 | EGDSLRYLYAN | GKNNRPS | SGRDSSGFNVF | 2.81 2.38 2.24 | 2.48 | 2 of 9 (3.54) |
| 33 | EGDSLKYYYAN | GKNTRPS | SSRDSRGFQVF | 2.53 3.19 2.60 | 2.78 | 3 of 9 (4.47) |
| 34 | EGDSLRYYTAN | GKNNRPS | MSRDSSGFQVF | 2.16 1.98 1.85 | 1.99 | 0 of 9 |
| 35 | EGDSLRYYYTN | GGNNRPS | SSRDSSGVQVF | 4.84 4.60 2.79 | 4.08 | 0 of 9 |

The first 2 variants above that were never detected:

CDR-L1	CDR-L2	CDR-L3	log10 Kd (nM) by replicate	mean log10 Kd (nM)	control signals
EGDSLRYYWAN	EKNNRPS	SSRISSGFQVF	nd nd nd	nd	1 of 9 (3.08)
EGDILRYYYAN	GKNNTPS	SSFDSSGFQVF	nd nd nd	nd	0 of 9